Earlier results in patent publication US20100012892A1, “Tooth Whitening Compositions and Methods” (priority 2008, published 2010).

Conditions: chlorite ion/chlorous acid equilibrium

chlorous acid [chlorite ion/chlorous acid]
pKa: 1.8
